# Results: patent US20200009143A1, “REPURPOSING OF CANCER DRUGS FOR TREATMENT OF MYCOBACTERIUM” (STC.UNM, priority 2016, published 2020)
# By UniProt entry, the sequences of proteins in these tests, tags left out. Residues count along the entry.
# UniProt P11103, 2-1013: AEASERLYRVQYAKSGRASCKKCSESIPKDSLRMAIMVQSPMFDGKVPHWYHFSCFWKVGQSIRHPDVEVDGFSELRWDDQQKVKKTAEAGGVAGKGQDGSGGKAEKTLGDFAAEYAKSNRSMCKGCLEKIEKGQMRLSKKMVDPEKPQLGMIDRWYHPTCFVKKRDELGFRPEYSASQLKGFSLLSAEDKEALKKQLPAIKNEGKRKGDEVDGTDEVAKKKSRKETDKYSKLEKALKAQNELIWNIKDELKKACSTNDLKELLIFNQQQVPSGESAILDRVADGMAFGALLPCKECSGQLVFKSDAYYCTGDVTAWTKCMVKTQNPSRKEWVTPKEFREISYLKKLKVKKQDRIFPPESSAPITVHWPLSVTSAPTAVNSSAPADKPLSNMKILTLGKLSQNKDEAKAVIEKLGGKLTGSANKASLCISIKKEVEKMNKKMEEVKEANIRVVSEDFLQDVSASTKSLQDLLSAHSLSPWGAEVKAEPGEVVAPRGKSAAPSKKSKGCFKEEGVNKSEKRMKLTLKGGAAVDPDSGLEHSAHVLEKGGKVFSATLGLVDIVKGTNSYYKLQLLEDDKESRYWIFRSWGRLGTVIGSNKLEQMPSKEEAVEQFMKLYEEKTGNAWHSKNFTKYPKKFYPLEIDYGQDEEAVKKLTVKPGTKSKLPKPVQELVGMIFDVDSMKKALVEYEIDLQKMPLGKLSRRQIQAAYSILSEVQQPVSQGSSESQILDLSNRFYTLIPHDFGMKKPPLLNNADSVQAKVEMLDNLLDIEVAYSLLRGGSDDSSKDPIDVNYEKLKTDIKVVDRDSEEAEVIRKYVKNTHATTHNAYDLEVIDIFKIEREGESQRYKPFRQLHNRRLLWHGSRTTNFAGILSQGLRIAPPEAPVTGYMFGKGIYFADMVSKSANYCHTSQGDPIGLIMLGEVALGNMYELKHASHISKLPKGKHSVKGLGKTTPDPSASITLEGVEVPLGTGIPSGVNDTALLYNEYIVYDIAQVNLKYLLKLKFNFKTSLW
# How the values were obtained:
# [1] = biological target: PARP (Mus musculus, UniProt P11103); assay: whole cell PARP inhibition in UV-activated RAW 264.7 macrophages, PARP activity by ELISA; type: cell-based; conditions: known peak plasma level in TB patients over whole-cell PARP IC50
# Experimental: PARP activity was activated in RAW 264.7 macrophage cells (by UV) that were pre-treated with PZA or POA for 1 hour and then PARP activity measured by ELISA as previously.^2 Replicate plates, n=3, mean±se.
# PZA is a prodrug activated to POA, the active form. […] Known peak plasma levels of POA and PZA of 300 μM and 500 μM in TB patients treated with PZA,^10 mean the ratio of plasma Cmax/IC50 is 20 for POA while it is only 4 for PZA, so that inhibition of PARP by POA should be dominant when it is formed by PZase.
# [2] = in vivo; cited from earlier work
structure (smiles),measurement,setting,value
"NC(=O)c1cnccn1 [PZA, pyrazinamide]",ratio of plasma Cmax/IC50,[1],4
same,distribution in human granulomas,[2],wide distribution
